Source: patent US20230295260A1, “GLP RECEPTOR AGONISTS” (HEPTARES THERAPEUTICS LIMITED, priority 2020, published 2023)

Biological target: T1, human GLP2 receptor (Homo sapiens, UniProt O95838)
T1 sequence (O95838 1-553): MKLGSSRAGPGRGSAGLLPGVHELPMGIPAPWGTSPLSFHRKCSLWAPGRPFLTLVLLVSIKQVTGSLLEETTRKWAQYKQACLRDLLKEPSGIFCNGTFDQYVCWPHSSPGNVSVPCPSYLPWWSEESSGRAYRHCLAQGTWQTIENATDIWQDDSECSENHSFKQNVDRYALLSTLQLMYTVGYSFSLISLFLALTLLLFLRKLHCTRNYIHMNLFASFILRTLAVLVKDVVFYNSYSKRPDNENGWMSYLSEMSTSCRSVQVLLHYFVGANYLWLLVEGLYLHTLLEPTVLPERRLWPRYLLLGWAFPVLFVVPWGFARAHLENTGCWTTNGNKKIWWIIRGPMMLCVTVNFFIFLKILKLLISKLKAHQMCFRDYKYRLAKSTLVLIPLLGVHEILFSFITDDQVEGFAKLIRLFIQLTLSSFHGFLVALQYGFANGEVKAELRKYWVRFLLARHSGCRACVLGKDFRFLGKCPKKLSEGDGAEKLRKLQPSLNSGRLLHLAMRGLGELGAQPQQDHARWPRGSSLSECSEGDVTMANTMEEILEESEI
Assay: cAMP accumulation assay (HTRF), functional agonism of human GLP2 receptor in HEK cells;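 further: HEK cells transduced via BacMam to express human GLP2 receptor, agonist-stimulated cAMP measured by HTRF after 45 min at 37 °C in HBSS with 0.5 mM IBMX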

## CC[C@H](C)[C@H](NC(=O)[C@H](Cc1ccccc1)NC(=O)[C@H](CC(=O)O)NC(=O)[C@H](CCCNC(=N)N)NC(=O)[C@H](C)NC(=O)[C@H](C)NC(=O)[C@H](CC(C)C)NC(=O)[C@H](CC(N)=O)NC(=O)[C@H](CC(=O)O)NC(=O)[C@H](CC(C)C)NC(=O)[C@@H](NC(=O)[C@@H](NC(=O)[C@H](CC(N)=O)NC(=O)[C@H](CCSC)NC(=O)[C@H](CCC(=O)O)NC(=O)[C@H](CC(=O)O)NC(=O)[C@H](CO)NC(=O)[C@H](Cc1ccccc1)NC(=O)[C@H](CO)NC(=O)CNC(=O)[C@H](CC(=O)O)NC(=O)CNC(=O)[C@@H](N)Cc1c[nH]cn1)[C@@H](C)O)[C@@H](C)CC)C(=O)N[C@@H](CC(N)=O)C(=O)N[C@@H](Cc1c[nH]c2ccccc12)C(=O)N[C@@H](CC(C)C)C(=O)N[C@H](C(=O)N[C@@H](CCC(N)=O)C(=O)N[C@H](C(=O)N[C@@H](CCCCN)C(=O)N[C@H](C(=O)N[C@H](C(=O)N[C@@H](CC(=O)O)C(=O)O)[C@@H](C)O)[C@@H](C)CC)[C@@H](C)O)[C@@H](C)CC [Teduglutide, reference compound]
  pEC50: 11.80

pEC50: −log10 of the molar value.
